Test system: primary HSCs

## Cc1sc2c(c1C)C(c1ccc(Cl)cc1)=N[C@@H](CC(=O)OC(C)(C)C)c1nnc(C)n1-2 [JQ1, (S)-tert-butyl 2-(4-(4-chlorophenyl)-2,3,9-trimethyl-6H-thieno[3,2-f][1,2,4]triazolo[4,3-a][1,4]diazepin-6-yl)acetate]
  Ddah1 log2(fold_change): −1.8403
  Ddr1 log2(fold_change): 0.8654
  Ddr2 log2(fold_change): 0.6474
  Def6 log2(fold_change): −3.1418
  Des log2(fold_change): −3.8145
  Dhrs1 log2(fold_change): −0.4106
  Diap3 log2(fold_change): 0.7607
  Dkk2 log2(fold_change): −3.8705
  Dlg4 log2(fold_change): −0.7042
  Dlgap5 log2(fold_change): 0.6367
  Dmpk log2(fold_change): −1.738
  Dnajb4 log2(fold_change): −0.6743
  Dnpep log2(fold_change): −0.3504
  Dok5 log2(fold_change): −2.7837
  Dpep1 log2(fold_change): −4.4821
  Dpysl3 log2(fold_change): −2.1905
  Dst log2(fold_change): −0.7345
  Dynlrb1 log2(fold_change): −0.3298
  Dzip1l log2(fold_change): −0.475
  Dzip1 log2(fold_change): 2.083
  Dzip3 log2(fold_change): 0.4236
  E2f1 log2(fold_change): 0.7425
  Eda2r log2(fold_change): −0.5731
  Efemp1 log2(fold_change): 2.802
  Efemp2 log2(fold_change): −0.6136
  Egr1 log2(fold_change): 1.057
  Elfn1 log2(fold_change): −3.7851
  Eln log2(fold_change): −6.1713
  Elovl5 log2(fold_change): 0.6145
  Emilin2 log2(fold_change): 1.166
  Emp2 log2(fold_change): −2.2254
  Eno2 log2(fold_change): 0.4371
  Enpp5 log2(fold_change): −0.2509
  Epdr1 log2(fold_change): −0.5916
  Epha7 log2(fold_change): 1.242
  Ephb3 log2(fold_change): 0.6646
  Ephx1 log2(fold_change): 0.7179
  Esrp2 log2(fold_change): −3.1358
  Etv4 log2(fold_change): −2.9572
  Evc2 log2(fold_change): −0.7253
  Evc log2(fold_change): 0.5139
  Ext1 log2(fold_change): −0.3121
  Ext2 log2(fold_change): 0.4643
  Extl3 log2(fold_change): −0.5052
  F3 log2(fold_change): −3.0325
  Fah log2(fold_change): −2.1282
  Fam19a5 log2(fold_change): −1.8682
  Fam20a log2(fold_change): −0.248
  Fam38b log2(fold_change): −2.2611
  Fam110c log2(fold_change): −0.4708
  Fam114a1 log2(fold_change): −0.8465
  Fam115c log2(fold_change): −0.708
  Fam117a log2(fold_change): 1.187
  Fam123b log2(fold_change): 0.8526
  Fam132a log2(fold_change): −1.6658
  Fam132b log2(fold_change): −3.2368
  Fam149a log2(fold_change): −0.623
  Fam171b log2(fold_change): 0.4558
  Fam189b log2(fold_change): −0.5628
  Fam198b log2(fold_change): −5.0284
  Fam83d log2(fold_change): 1.503
  Fap log2(fold_change): −1.674
  Fblim1 log2(fold_change): −2.7147
  Fbln1 log2(fold_change): 1.022
  Fbln5 log2(fold_change): 1.8105
  Fbxo5 log2(fold_change): 0.7919
  Fbxw9 log2(fold_change): −0.4897
  Fgf18 log2(fold_change): −0.7031
  Fgfr2 log2(fold_change): 1.462
  Fhl1 log2(fold_change): 1.153
  Fhl2 log2(fold_change): −0.8206
  Fibin log2(fold_change): −2.7224
  Figf log2(fold_change): 1.282
  Fignl1 log2(fold_change): 0.7783
  Fkbp7 log2(fold_change): −0.4648
  Fkbp10 log2(fold_change): −3.1097
  Fkbp11 log2(fold_change): −2.6721
  Flnc log2(fold_change): −0.7255
  Fmod log2(fold_change): −2.4735
  Fndc1 log2(fold_change): −2.1821
  Fndc4 log2(fold_change): −2.1512
  Folr1 log2(fold_change): −2.4816
  Foxc2 log2(fold_change): −2.3603
  Foxf2 log2(fold_change): −2.0429
  Foxm1 log2(fold_change): 0.6308
  Frzb log2(fold_change): −0.2723
  Fscn1 log2(fold_change): 0.7798
  Fst log2(fold_change): −3.6852
  Fstl3 log2(fold_change): −2.2285
  Fxyd6 log2(fold_change): −4.077
  Fzd2 log2(fold_change): −0.7589
  Fzd6 log2(fold_change): −2.3725
  Gabra3 log2(fold_change): −0.6835
  Gamt log2(fold_change): 1.086
  Gas1 log2(fold_change): 0.6451
  Gas6 log2(fold_change): −0.8639
  Gbx2 log2(fold_change): −4.2612
  Gdf6 log2(fold_change): −1.6225
  Gdf11 log2(fold_change): 1.395
  Ghr log2(fold_change): 0.8735
  Gjb3 log2(fold_change): −7.6272
  Gjb5 log2(fold_change): −5.5359
  Gm2a log2(fold_change): −0.2551
  Gm5424 log2(fold_change): −0.8845
  Gm12824 log2(fold_change): −3.0317
  Gm14420 log2(fold_change): −0.5026
  Gmnn log2(fold_change): 0.6461
  Gmpr log2(fold_change): −0.3076
  Gpc1 log2(fold_change): −2.0268
  Gpc4 log2(fold_change): −0.4394
  Gpm6b log2(fold_change): 0.7764
  Gpr39 log2(fold_change): −2.008
  Gpr133 log2(fold_change): −2.4415
  Gpr176 log2(fold_change): −2.941
  Gpr180 log2(fold_change): −0.3841
  Gpx1 log2(fold_change): 0.4381
  Gpx8 log2(fold_change): −0.8413
  Grhpr log2(fold_change): −0.6553
  Gria3 log2(fold_change): −0.798
  Gria4 log2(fold_change): −1.702
  Gstt3 log2(fold_change): 0.5967
  Gyg log2(fold_change): 0.7657
  Gys1 log2(fold_change): −1.8678
  H1fx log2(fold_change): 1.834
  H2afx log2(fold_change): 1.827
  H19 log2(fold_change): 2.0967
  Hadh log2(fold_change): 0.7287
  Hand2 log2(fold_change): 0.6759
  Has2 log2(fold_change): −5.2936
  Hebp2 log2(fold_change): −3.411
  Hhipl1 log2(fold_change): −3.5097
  Hist1h1c log2(fold_change): 1.273
  Hk2 log2(fold_change): −2.0803
  Hmcn1 log2(fold_change): 1.511
  Hmgn3 log2(fold_change): 1.352
  Hmmr log2(fold_change): 0.676
  Hoxb2 log2(fold_change): −0.27
  Hrct1 log2(fold_change): −1.61
  Hs6st2 log2(fold_change): −1.5564
  Hsd11b1 log2(fold_change): −3.3117
  Hspa2 log2(fold_change): 1.246
  Hspb1 log2(fold_change): −0.392
  Hspb2 log2(fold_change): −2.8717
  Hspb7 log2(fold_change): −5.3326
  Hspg2 log2(fold_change): −0.2927
  Htra3 log2(fold_change): −3.7285
  Id3 log2(fold_change): 0.7078
  Igf2 log2(fold_change): −2.0054
  Igf2r log2(fold_change): 1.001
  Igfbp2 log2(fold_change): −2.2293
  Igfbp3 log2(fold_change): −0.769
  Igfbp6 log2(fold_change): 1.061
  Iglon5 log2(fold_change): −1.9642
  Igsf8 log2(fold_change): −0.5384
  Ikbip log2(fold_change): −0.4313
  Il1rap log2(fold_change): −0.6045
  Ildr2 log2(fold_change): 0.4541
  Inpp5a log2(fold_change): −0.5375
  Isoc2b log2(fold_change): −0.7342
  Isyna1 log2(fold_change): 1.463
  Itga1 log2(fold_change): 1.241
  Itga5 log2(fold_change): −2.4936
  Itm2a log2(fold_change): 1.209
  Ivl log2(fold_change): −5.7601
  Jph2 log2(fold_change): −2.9197
  Jub log2(fold_change): −0.4248
  Kank1 log2(fold_change): −0.5094
  Kazald1 log2(fold_change): −0.367
  Kcne4 log2(fold_change): −2.4298
  Kcnmb1 log2(fold_change): −8.5908
  Kctd15 log2(fold_change): −3.5649
  Kdm5b log2(fold_change): −0.323
  Kif1a log2(fold_change): −0.812
  Kif2c log2(fold_change): 0.7386
  Kif4 log2(fold_change): 0.605
  Kif11 log2(fold_change): 0.6087
  Kif20b log2(fold_change): 0.7561
  Kif21b log2(fold_change): −0.3239
  Kif22 log2(fold_change): 0.5992
  Kif23 log2(fold_change): 0.887
